In patent US20250179215A1, “PLASMIN-BINDING VHHS” (RHEINISCHE FRIEDRICH-WILHELMS-UNIVERSITÄT BONN, priority 2022, published 2025):
Values belong to the molecule of their own block, whether it stands above or below them.

Assays:
plasmin = plasmin (Homo sapiens, UniProt P00747); test: cell-based or functional assay

plasmin-mediated cleavage of FVa, maximal inhibition rate at 10 µM BPTI (plasmin): 26%
Molecule: Aprotinin (BPTI) (from UniProt P00974 36-93)

B1: human plasmin (protein)
chain 1: KVYLSECKTGNGKNYRGTMSKTKNGITCQKWSSTSPHRPRFSPATHPSEGLEENYCRNPDNDPQGPWCYTTDPEKRYDYCDILECEEECMHCSGENYDGKISKTMSGLECQAWDSQSPHAHGYIPSKFPNKNLKKNYCRNPDRELRPWCFTTDPNKRWELCDIPRCTTPPPSSGPTYQCLKGTGENYRGNVAVTVSGHTCQHWSAQTPHTHNRTPENFPCKNLDENYCRNPDGKRAPWCHTTNSQVRWEYCKIPSCDSSPVSTEQLAPTAPPELTPVVQDCYHGDGQSYRGTSSTTTTGKKCQSWSSMTPHRHQKTPENYPNAGLTMNYCRNPDADKGPWCFTTDPSVRWEYCNLKKCSGTEASVVAPPPVVLLPDVETPSEEDCMFGNGKGYRGKRATTVTGTPCQDWAAQEPHRHSIFTPETNPRAGLEKNYCRNPDGDVGGPWCYTTNPRKLYDYCDVPQCAAPSFDCGKPQVEPKKCPGR
chain 2: VVGGCVAHPHSWPWQVSLRTRFGMHFCGGTLISPEWVLTAAHCLEKSPRPSSYKVILGAHQEVNLEPHVQEIEVSRLFLEPTRKDIALLKLSSPAVITDKVIPACLPSPNYVVADRTECFITGWGETQGTFGAGLLKEAQLPVIENKVCNRYEFLNGRVQSTELCAGHLAGGTDSCQGDSGGPLVCFEKDKYILQGVTSWGLGCARPNKPGVYVRVSRFVTWIEGVMRNN
Kcat/Km of plasmin-mediated cleavage of fluorogenic peptide substrate, BPTI 3 nM (Aprotinin (BPTI), P00974): 84.1 µM⁻¹ s⁻¹
Km of plasmin-mediated cleavage of fluorogenic peptide substrate, BPTI 3 nM (Aprotinin (BPTI), P00974): 352 µM
kcat of plasmin-mediated cleavage of fluorogenic peptide substrate, BPTI 3 nM (Aprotinin (BPTI), P00974): 29600 s⁻¹
